The entries are a selection whose mix differs from that of the whole data set. Some salts and complexes are drawn in separate pieces, as the source files them; their charges need not balance. The source made the active and inactive calls. Rule as the data show it: active = inhibition above about 50%; inactive = the rest.

Amino acid sequences for entries named in this document (tags omitted). Residues count along the entry.
UniProt P26358, 504-1616 limits assumed: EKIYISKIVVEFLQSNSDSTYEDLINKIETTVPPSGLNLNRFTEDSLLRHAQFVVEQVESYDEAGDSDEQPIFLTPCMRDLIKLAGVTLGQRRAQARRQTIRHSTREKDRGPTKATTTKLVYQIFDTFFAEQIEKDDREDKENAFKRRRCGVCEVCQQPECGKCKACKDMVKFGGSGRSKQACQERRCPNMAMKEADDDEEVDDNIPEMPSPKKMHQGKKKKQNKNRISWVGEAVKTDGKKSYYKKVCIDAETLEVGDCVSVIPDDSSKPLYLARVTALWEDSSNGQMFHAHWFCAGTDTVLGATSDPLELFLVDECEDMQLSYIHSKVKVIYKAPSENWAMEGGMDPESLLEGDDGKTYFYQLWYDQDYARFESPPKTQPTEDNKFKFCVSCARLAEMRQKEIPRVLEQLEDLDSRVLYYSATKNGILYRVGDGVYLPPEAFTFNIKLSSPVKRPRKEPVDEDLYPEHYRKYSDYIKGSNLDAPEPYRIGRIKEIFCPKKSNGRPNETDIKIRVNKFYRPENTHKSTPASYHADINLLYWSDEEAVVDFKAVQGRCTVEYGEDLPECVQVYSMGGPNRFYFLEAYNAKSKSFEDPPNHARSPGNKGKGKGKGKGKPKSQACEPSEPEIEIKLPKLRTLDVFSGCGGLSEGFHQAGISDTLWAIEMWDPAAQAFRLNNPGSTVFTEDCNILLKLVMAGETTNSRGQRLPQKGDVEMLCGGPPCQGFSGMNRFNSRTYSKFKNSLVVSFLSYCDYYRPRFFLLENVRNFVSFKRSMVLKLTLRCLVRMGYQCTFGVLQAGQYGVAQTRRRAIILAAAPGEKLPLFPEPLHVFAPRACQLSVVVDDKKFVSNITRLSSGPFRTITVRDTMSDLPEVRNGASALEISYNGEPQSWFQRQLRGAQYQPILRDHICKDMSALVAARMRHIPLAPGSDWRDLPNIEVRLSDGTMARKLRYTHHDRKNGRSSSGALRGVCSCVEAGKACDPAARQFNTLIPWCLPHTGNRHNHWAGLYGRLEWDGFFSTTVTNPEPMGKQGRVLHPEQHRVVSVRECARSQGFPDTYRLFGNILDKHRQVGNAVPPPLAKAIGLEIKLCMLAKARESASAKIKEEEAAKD

The assay addresses DNA (cytosine-5)-methyltransferase 1 (Homo sapiens) (UniProt P26358). Briefly: human DNMT1 methyltransferase inhibitors, primary screen, biochemical, molecular beacon, fluorescence, HinP1I cleavage, uHTS (AID 588458). Particulars: at 10 µM, stronger effect = higher value.
Regarding `CP(=O)(Nc1ccccc1F)Oc1ccccc1` (stereo not given), the inhibition (reported as % activation of signal) is inactive: 0.54%.

Regarding `CC(C)c1ccc(OP(C)(=O)Nc2ccc(SC(F)(F)F)cc2)cc1` (stereo not given), the inhibition (reported as % activation of signal) is inactive: -21.8%. For `O=[N+]([O-])c1cc([N+](=O)[O-])c(Nc2ccc(Cl)cc2)c([N+](=O)[O-])c1` the value was inactive: 10.2%. Take `COc1ccc2c(c1O)-c1c(O)c(OC)cc3c1[C@H](C2)[N+](C)(C)CC3.O=[N+]([O-])c1cc([N+](=O)[O-])c([O-])c([N+](=O)[O-])c1[O-]`: the inhibition (reported as % activation of signal) was inactive: 12.6%. For `O=C(OC1CN2CCC1CC2)c1ccc([N+](=O)[O-])cc1` (stereo not given) the value was inactive: 0.36%.

For the molecule `O=C(OCCN1CCN(CCOCc2ccccc2)CC1)C(O)(c1ccccc1)c1ccccc1`, the inhibition (reported as % activation of signal) is inactive: 1.71%. Turning to `CCOC(=O)c1ccc(NP(C)(=O)Oc2ccc(F)cc2)cc1` (stereo not given), the inhibition (reported as % activation of signal) is inactive: 2.28%. To `COc1ccc(OP(C)(=O)Nc2ccc(SC(F)(F)F)cc2)cc1` (stereo not given) belongs inactive: -0.63%. With `CP(=O)(Nc1ccccc1)Oc1ccc(F)cc1` (stereo not given), the inhibition (reported as % activation of signal) was inactive: 3.59%.

Turning to `O=[N+]([O-])c1cc([N+](=O)[O-])c(OC2CCCCC2O)c([N+](=O)[O-])c1` (stereo not given), the inhibition (reported as % activation of signal) was inactive: -1.32%.

For the molecule `CCCCCOc1ccc(NP(C)(=O)Oc2ccc(Cl)cc2Cl)cc1` (stereo not given), the inhibition (reported as % activation of signal) is inactive: -14%. For `Cc1c([N+](=O)[O-])cc([N+](=O)[O-])c(Br)c1[N+](=O)[O-]` the value was inactive: 5.88%. For `CCN(CC)CCCOC(=O)C(O)(c1ccccc1)C1CCCCC1` (stereo not given) the value was inactive: 0.81%; for `CN(C)CCOC(=O)C(O)(c1ccccc1)C1CCCCC1` (stereo not given), inactive: 0.7%. As for `COc1ccc(NP(C)(=O)Oc2ccccc2OC)cc1` (stereo not given), the inhibition (reported as % activation of signal) is inactive: 0.65%. To `COc1ccc(OP(C)(=O)Nc2cccc(Br)c2)cc1` (stereo not given) belongs inactive: 2.1%; to `Cc1c(C(c2ccc3c(c2)OCO3)c2c(C)n(C)n(-c3ccccc3)c2=O)c(=O)n(-c2ccccc2)n1C.O=[N+]([O-])c1cc([N+](=O)[O-])c(O)c([N+](=O)[O-])c1`, inactive: 1.13%; to `O=[N+]([O-])c1ccc(OP2(=O)COCCO2)cc1` (stereo not given), inactive: 2.2%. For `O=[N+]([O-])c1cc([N+](=O)[O-])c(NCC2CCS(=O)(=O)C2)c([N+](=O)[O-])c1` (stereo not given) the value was inactive: 15.7%; for `Cc1cc(-c2cccc3ccccc23)c(C)cn1.O=[N+]([O-])c1cc([N+](=O)[O-])c(O)c([N+](=O)[O-])c1`, inactive: 1.75%. To `CCOP(C)(=S)SCC(=O)NC(C)(CC)C(=O)O` (stereo not given) belongs inactive: -0.35%. Turning to `CP(=O)(Nc1ccc(SC(F)(F)F)cc1)Oc1ccc(F)cc1` (stereo not given), the inhibition (reported as % activation of signal) was inactive: -2.54%.

`Cc1ccccc1NP(C)(=O)Nc1ccccc1C`: the inhibition (reported as % activation of signal) is inactive: -2.21%.

Turning to `CP(=O)(Nc1ccc2c(c1)OCCO2)Oc1ccccc1` (stereo not given), the inhibition (reported as % activation of signal) is inactive: -2.3%. To `O=C(OCCCN1CCCC1)C(O)(c1ccccc1)C1CCCCC1` (stereo not given) belongs inactive: -0.53%; to `COc1ccccc1OP(C)(=O)Nc1c(C)n(C)n(-c2ccccc2)c1=O` (stereo not given), inactive: -2.46%.

As for `CCc1ccc(OP(C)(=O)Nc2cccnc2)cc1` (stereo not given), the inhibition (reported as % activation of signal) is inactive: 1.44%. As for `CP(=O)(Oc1ccccc1)N1CCOC1=O` (stereo not given), the inhibition (reported as % activation of signal) is inactive: -0.65%. To `COc1ccc(OP(C)(=O)Nc2ccc(Br)cc2)cc1` (stereo not given) belongs inactive: -0.13%; to `CCN(CC)CC(O)COC(=O)C(O)(c1ccccc1)C1CCCCC1` (stereo not given), inactive: -1.72%; to `CN(C)C(=O)c1c([N+](=O)[O-])cc([N+](=O)[O-])cc1[N+](=O)[O-]`, inactive: -3.47%. For `COc1ccccc1OP(C)(=O)Nc1ccccc1Br` (stereo not given) the value was inactive: 0.04%; for `CC(C)(C)c1ccc(OP(C)(=O)O)cc1`, inactive: 1.83%. To `CP(=O)(Nc1ccc(Cl)cc1)Oc1ccc(F)cc1` (stereo not given) belongs inactive: -2.03%; to `CCOC(=O)c1ccc(NP(C)(=O)Oc2ccc(Cl)cc2)cc1` (stereo not given), inactive: 0.05%.

`CP(=O)(OC12CC3CC(CC(C3)C1)C2)OC12CC3CC(CC(C3)C1)C2`: the inhibition (reported as % activation of signal) was inactive: -1.78%. In the case of `COc1ccccc1OP(C)(=O)Nc1ccc(C)c(C)c1` (stereo not given), the inhibition (reported as % activation of signal) is inactive: -1.06%.

In the case of `COc1ccc(OP(C)(=O)Nc2ccccc2Br)cc1` (stereo not given), the inhibition (reported as % activation of signal) was inactive: -0.7%. To `Cc1cc(C)cc(OP(C)(=O)Nc2cccc(C(F)(F)F)c2)c1` (stereo not given) belongs inactive: 0.9%. To `O=C1C(O)=C([N+](=O)[O-])C(=O)C(O)=C1[N+](=O)[O-]` belongs active: 86.9%.

With `CP(=O)(Nc1ccc(Cl)cc1Cl)Oc1ccccc1` (stereo not given), the inhibition (reported as % activation of signal) is inactive: 1.71%.

Regarding `CCCCCCCCCCCCCCCC1C[N+](C)(C)CCOP(C)(=O)O1` (stereo not given), the inhibition (reported as % activation of signal) is inactive: 7.26%. For `CP(=O)(OCCOc1ccccc1)OCCOc1ccccc1` the value was inactive: 3.77%. For `COc1ccc(OP(C)(=O)Nc2ccccn2)cc1` (stereo not given) the value was inactive: 14.6%.

Turning to `CN(C)CCOC(=O)C(O)(c1ccccc1)C1CCCC1` (stereo not given), the inhibition (reported as % activation of signal) was inactive: 2%.

In the case of `COc1ccccc1OP(C)(=O)Nc1ccc(Br)cc1` (stereo not given), the inhibition (reported as % activation of signal) was inactive: 0.91%. To `COc1ccccc1OP(C)(=O)Nc1ccc(C)cc1C` (stereo not given) belongs inactive: 3.71%. For `CP(=O)(Nc1ccccn1)Oc1ccccc1` (stereo not given) the value was inactive: 0.67%; for `CCc1ccc(OP(C)(=O)O)cc1`, inactive: 1.46%; for `Cc1c(NP(C)(=O)Oc2ccc(C(C)C)cc2)c(=O)n(-c2ccccc2)n1C` (stereo not given), inactive: 0.96%. To `O=[N+]([O-])c1cc([N+](=O)[O-])c(Nc2ccccn2)c([N+](=O)[O-])c1` belongs inactive: -9.71%; to `CCN(CC)CCCOC(=O)C(O)(c1ccccc1)c1ccccc1`, inactive: 1.31%; to `O=[N+]([O-])c1ccc2c(c1)C=Nc1ccccc1O2`, inactive: 2.4%. In the case of `Cc1cccc(C)c1OP(C)(N)=O` (stereo not given), the inhibition (reported as % activation of signal) was inactive: -1.27%.

For `CC(C)(C)c1ccc(OP(C)(=O)Nc2ccc(SC(F)(F)F)cc2)cc1` (stereo not given), the inhibition (reported as % activation of signal) is inactive: -24.1%. To `O=[N+]([O-])c1cc([N+](=O)[O-])c(Nc2cccnc2)c([N+](=O)[O-])c1` belongs inactive: 9.3%. Take `Cc1cc(C)cc(OP(C)(N)=O)c1` (stereo not given): the inhibition (reported as % activation of signal) was inactive: -3.98%. To `COc1ccc(OP(C)(=O)Nc2cccc(F)c2)cc1` (stereo not given) belongs inactive: 2.31%.

Take `COc1ccccc1OP(C)(=O)Nc1cc(Cl)ccc1C` (stereo not given): the inhibition (reported as % activation of signal) was inactive: 4.5%. For `Cc1ccc(NP(C)(=O)Oc2ccccc2)c(C)c1` (stereo not given) the value was inactive: 3.86%; for `COc1ccccc1OP(C)(=O)Nc1ccc(C)cc1` (stereo not given), inactive: -1.03%; for `CCOC(=O)c1ccc(NP(C)(=O)Oc2ccccc2)cc1` (stereo not given), inactive: 1.7%. For `CP(=O)(Nc1ccccc1Br)Oc1ccccc1` (stereo not given) the value was inactive: 5.07%; for `COc1ccccc1OP(C)(=O)Nc1ccccc1` (stereo not given), inactive: 2.4%.

Take `CP(=S)(Nn1cnnc1)Oc1ccccc1` (stereo not given): the inhibition (reported as % activation of signal) was inactive: 1.16%.

In the case of `Cc1cc(C)cc(OP(C)(=O)Nc2ccc(SC(F)(F)F)cc2)c1` (stereo not given), the inhibition (reported as % activation of signal) is inactive: -7.32%. For `CP(=O)(NC(=O)Nc1ccccc1)Oc1ccccc1` (stereo not given) the value was inactive: 0.91%. For `CCc1ccc(OP(C)(=O)N2CCN(c3ccc([N+](=O)[O-])cc3)CC2)cc1` (stereo not given) the value was inactive: -3.37%; for `CP(=O)(Oc1ccccc1)OC(c1ccccc1)C(F)(F)F` (stereo not given), inactive: -0.36%.

As to `CP(=O)(Nc1ccc(SC(F)(F)F)cc1)Oc1ccc(Cl)cc1` (stereo not given), the inhibition (reported as % activation of signal) is inactive: -7.79%. For `Cc1cccc(C)c1OP(C)(=O)Nc1ccc(SC(F)(F)F)cc1` (stereo not given) the value was inactive: 2.54%; for `Cc1ccc(Nc2c([N+](=O)[O-])cc([N+](=O)[O-])cc2[N+](=O)[O-])cc1`, inactive: 5.52%; for `CP(=O)(Nc1ccccn1)Oc1ccc(Cl)cc1` (stereo not given), inactive: 0.24%. For `O=[N+]([O-])c1cc([N+](=O)[O-])c(O)c([N+](=O)[O-])c1.c1ccc(Oc2ccncc2)cc1` the value was inactive: -1.65%.

`CCOC(=O)c1ccc(NP(C)(=O)Oc2ccc(OC)cc2)cc1` (stereo not given): the inhibition (reported as % activation of signal) was inactive: -2.9%. As for `CCOP(C)(=S)SCC(=O)NC(C)C(=O)O` (stereo not given), the inhibition (reported as % activation of signal) was inactive: 0.21%. Take `CN(Cc1cccnc1)C(=O)COc1ccc(Cl)c(Cl)c1.O=[N+]([O-])c1cc([N+](=O)[O-])c(O)c([N+](=O)[O-])c1`: the inhibition (reported as % activation of signal) is inactive: -0.45%. To `O=[N+]([O-])c1cc([N+](=O)[O-])c(-n2nnc3ccccc32)c([N+](=O)[O-])c1` belongs inactive: 0.75%; to `Cc1nc2ccc3ccccc3c2s1.O=[N+]([O-])c1cc([N+](=O)[O-])c(O)c([N+](=O)[O-])c1`, inactive: 0.42%.

Turning to `O=[N+]([O-])c1cc([N+](=O)[O-])c(-c2cnn(-c3ccccc3)c2)c([N+](=O)[O-])c1`, the inhibition (reported as % activation of signal) is inactive: -5.71%. For `CCOC(=O)C(CC)C1=NC(C)(C)Cc2ccccc21.O=[N+]([O-])c1cc([N+](=O)[O-])c(O)c([N+](=O)[O-])c1` (stereo not given) the value was inactive: -0.61%; for `CC1=C2N=C(C=C3N=C(C(C)=C4[N-][C@@](C)([C@@H]5N=C1[C@](C)(CCC(=O)NC[C@@H](C)OP(=O)([O-])O[C@H]1[C@@H](O)[C@@H](n6cnc7cc(C)c(C)cc76)O[C@@H]1CO)[C@H]5CC(N)=O)[C@@](C)(CC(N)=O)[C@@H]4CCC(N)=O)[C@@](C)(CC(N)=O)[C@@H]3CCC(N)=O)C(C)(C)[C@@H]2CCC(N)=O.[C-]#N.[Co+3]`, inactive: 15.3%.

For the molecule `O=[N+]([O-])c1cc([N+](=O)[O-])c(Nc2nnnn2CCO)c([N+](=O)[O-])c1`, the inhibition (reported as % activation of signal) is inactive: -2.79%. To `CCCOc1ccc(NP(C)(=O)Oc2ccc(Cl)cc2)cc1` (stereo not given) belongs inactive: -2.8%; to `CP(=O)(Nc1ccc(SC(F)(F)F)cc1)Oc1ccccc1` (stereo not given), inactive: 7.58%; to `CN1CCCCC1COC(=O)C1(O)c2ccccc2CCc2ccccc21` (stereo not given), inactive: 2.63%.

Take `COc1ccccc1OP(C)(=O)Nc1c(C)cccc1C` (stereo not given): the inhibition (reported as % activation of signal) is inactive: 2.07%.

`O=C(O)c1cccc(Nc2c([N+](=O)[O-])cc([N+](=O)[O-])cc2[N+](=O)[O-])c1`: the inhibition (reported as % activation of signal) is inactive: 1.98%. For `CC1=NCCc2c1[nH]c1ccccc21.O=[N+]([O-])c1cc([N+](=O)[O-])c(O)c([N+](=O)[O-])c1` the value was inactive: -2.52%.

Consider `CCOC(=O)c1ccc(NP(C)(=O)Oc2cc(C)cc(C)c2)cc1` (stereo not given), for which the inhibition (reported as % activation of signal) was inactive: -0.39%. For `Cc1cc(C)cc(OP(C)(=O)Nc2ccc(C)cc2C)c1` (stereo not given) the value was inactive: -0.41%; for `COc1ccccc1OP(C)(=O)Nc1cccc(Br)c1` (stereo not given), inactive: 1.38%. For `Cc1ccc(C)c(NP(C)(=O)Oc2ccccc2)c1` (stereo not given) the value was inactive: 5.74%; for `Cc1cc(C)cc(OP(C)(=O)Nc2ccccn2)c1` (stereo not given), inactive: 3.86%; for `CP(=O)(Nc1cccc(Br)c1)Oc1ccccc1` (stereo not given), inactive: 0.01%.

These data come from PubChem BioAssay AID588458 (Sanford-Burnham Center for Chemical Genomics, 2011).
